Earlier results in US7781417B2, “Cyclodextrin dimers and derivatives thereof, methods for preparing them and their use, in particular, for the solubilizing pharmacologically active substances” (Centre National de la Recherche Scientifique, priority 2003, dated 2010).

Conditions: WO 95/19994; cited from earlier work

6^I-S-α-maltosyl-6^I-thiocyclomaltoheptaose
solubility in water of Taxotere on adding the cyclodextrin to its aqueous suspension: 6500 µg/mL
